Laboratory results reported in patent US9751886B2, “4-amino-6-phenyl-6,7-dihydro[1,2,3]triazolo[1,5-A]pyrazine derivatives as inhibitors of beta-secretase (BACE)” (Janssen Pharmaceutica NV, priority 2013, dated 2017).

The chains behind the UniProt entries cited, without tags or fusion partners. Residues count along the entry.
UniProt Q9Y5Z0, 63-518: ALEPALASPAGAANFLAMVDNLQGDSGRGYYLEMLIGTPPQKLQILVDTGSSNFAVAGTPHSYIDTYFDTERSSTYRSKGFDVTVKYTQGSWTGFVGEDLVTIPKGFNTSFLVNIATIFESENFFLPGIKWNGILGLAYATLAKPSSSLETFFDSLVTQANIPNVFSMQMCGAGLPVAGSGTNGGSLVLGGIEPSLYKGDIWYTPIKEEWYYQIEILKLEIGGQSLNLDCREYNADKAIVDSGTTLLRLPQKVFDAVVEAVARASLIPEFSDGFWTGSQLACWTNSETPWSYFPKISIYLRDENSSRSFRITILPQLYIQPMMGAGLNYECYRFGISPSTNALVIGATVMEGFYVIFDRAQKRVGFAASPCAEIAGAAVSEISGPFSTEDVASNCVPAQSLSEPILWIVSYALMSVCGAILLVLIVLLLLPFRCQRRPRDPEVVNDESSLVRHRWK

Target: recombinant BACE2 protein (Homo sapiens (Human), UniProt Q9Y5Z0)
Assay: BACE2 Biochemical FRET based assay
Conditions: 0.4 μg/ml BACE2, 10 μM substrate, 450 min, pH 5.0
Description: This assay is a Fluorescence Resonance Energy Transfer Assay (FRET) based assay. The substrate for this assay contains the ‘Swedish’ Lys-Met/Asn-Leu mutation of the amyloid precursor protein (APP) beta-secretase cleavage site. This substrate also contains two fluorophores: (7-methoxycoumarin-4-yl) acetic acid (Mca) is a fluorescent donor with excitation wavelength at 320 nm and emission at 405 nm and 2,4-Dinitrophenyl (Dnp) is a proprietary quencher acceptor. […] Upon cleavage by the beta-secretase, the fluorophore Mca is separated from the quenching group Dnp, restoring the full fluorescence yield of the donor. The increase in fluorescence is linearly related to the rate of proteolysis.
Briefly in a 384-well format recombinant BACE2 protein in a final concentration of 0.4 μg/ml is incubated for 450 minutes at room temperature with 10 μM substrate in incubation buffer (50 mM Citrate buffer pH 5.0, 0.05% PEG, no DMSO) in the absence or presence of compound. Next the amount of proteolysis is directly measured by fluorescence measurement at T=0 and T=450 (excitation at 320 nm and emission at 405 nm). Results are expressed in RFU (Relative Fluorescence Units), as difference between T450 and TO.

C[C@@]1(c2cc(NC(=O)c3ccc(F)cn3)cc(F)c2F)Cn2nncc2C(N)=N1 [Compound 8, N-{3-[(6R)-4-Amino-6-methyl-6,7-dihydro[1,2,3]triazolo[1,5-a]pyrazin-6-yl]-4,5-difluorophenyl}-5-fluoropyridine-2-carboxamide]
BACE2 Biochemical FRET based assay pIC50: 8.52
